Protein sequences, listed by entry. Tags and fused reporters are not part of them. Lines headed by an entry give the natural chain unless they say otherwise; changes in a name come on top.
UniProt Q9HC29, whole entry: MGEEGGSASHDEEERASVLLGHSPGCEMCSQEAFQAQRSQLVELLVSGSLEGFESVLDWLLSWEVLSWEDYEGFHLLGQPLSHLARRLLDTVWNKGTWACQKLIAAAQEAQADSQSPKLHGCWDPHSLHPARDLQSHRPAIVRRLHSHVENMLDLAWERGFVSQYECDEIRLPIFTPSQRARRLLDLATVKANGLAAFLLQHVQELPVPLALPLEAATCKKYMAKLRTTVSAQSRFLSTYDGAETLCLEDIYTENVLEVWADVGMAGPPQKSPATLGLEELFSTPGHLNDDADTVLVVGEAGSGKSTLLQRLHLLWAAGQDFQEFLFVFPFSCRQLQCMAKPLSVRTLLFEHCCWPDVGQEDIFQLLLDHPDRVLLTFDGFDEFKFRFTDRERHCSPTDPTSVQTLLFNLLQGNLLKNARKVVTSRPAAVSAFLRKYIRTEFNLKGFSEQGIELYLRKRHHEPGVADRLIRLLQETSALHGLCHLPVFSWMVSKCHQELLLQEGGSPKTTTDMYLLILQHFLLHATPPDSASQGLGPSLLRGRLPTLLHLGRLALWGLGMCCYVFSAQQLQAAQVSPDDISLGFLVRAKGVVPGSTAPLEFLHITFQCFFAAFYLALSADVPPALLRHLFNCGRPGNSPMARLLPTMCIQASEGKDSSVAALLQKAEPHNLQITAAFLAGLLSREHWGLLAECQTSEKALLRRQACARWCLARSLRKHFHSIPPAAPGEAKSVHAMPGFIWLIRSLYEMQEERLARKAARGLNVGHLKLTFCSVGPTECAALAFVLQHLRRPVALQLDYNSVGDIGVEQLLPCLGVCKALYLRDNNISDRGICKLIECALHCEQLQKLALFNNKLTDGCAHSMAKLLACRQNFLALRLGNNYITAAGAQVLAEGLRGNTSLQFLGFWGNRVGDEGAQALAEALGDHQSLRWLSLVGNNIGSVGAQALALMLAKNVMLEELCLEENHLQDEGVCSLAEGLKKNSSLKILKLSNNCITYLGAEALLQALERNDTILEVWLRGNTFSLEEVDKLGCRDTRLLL
UniProt P98170, whole entry: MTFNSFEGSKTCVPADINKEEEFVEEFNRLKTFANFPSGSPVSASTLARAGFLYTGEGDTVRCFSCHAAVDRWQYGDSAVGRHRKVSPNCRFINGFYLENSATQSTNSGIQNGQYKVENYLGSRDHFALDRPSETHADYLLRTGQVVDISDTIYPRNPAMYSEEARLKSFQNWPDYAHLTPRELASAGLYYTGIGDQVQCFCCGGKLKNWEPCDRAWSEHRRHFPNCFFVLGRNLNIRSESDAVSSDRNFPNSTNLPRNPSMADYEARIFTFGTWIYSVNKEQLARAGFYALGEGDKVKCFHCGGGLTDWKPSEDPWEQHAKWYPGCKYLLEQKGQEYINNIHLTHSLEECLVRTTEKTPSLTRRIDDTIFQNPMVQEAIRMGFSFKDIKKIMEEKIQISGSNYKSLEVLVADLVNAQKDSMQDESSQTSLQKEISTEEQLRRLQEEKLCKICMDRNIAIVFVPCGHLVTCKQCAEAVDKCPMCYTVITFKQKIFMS
UniProt P41145: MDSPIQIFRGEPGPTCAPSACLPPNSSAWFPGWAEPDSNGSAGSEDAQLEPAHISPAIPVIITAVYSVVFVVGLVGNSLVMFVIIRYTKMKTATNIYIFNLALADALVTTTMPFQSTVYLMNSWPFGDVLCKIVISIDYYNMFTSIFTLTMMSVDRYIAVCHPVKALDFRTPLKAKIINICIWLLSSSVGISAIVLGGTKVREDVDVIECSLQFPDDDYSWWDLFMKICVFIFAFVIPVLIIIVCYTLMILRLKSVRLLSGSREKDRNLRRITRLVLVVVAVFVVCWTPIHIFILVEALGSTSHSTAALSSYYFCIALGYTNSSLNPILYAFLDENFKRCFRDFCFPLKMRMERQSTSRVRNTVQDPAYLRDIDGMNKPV

According to ChEMBL document CHEMBL1201862, “PubChem BioAssay data set” (2004):

Legend:
[1] = target: Nucleotide-binding oligomerization domain-containing protein 2 (Homo sapiens, UniProt Q9HC29); test: PubChem AID 2334; type: functional
Prothrombin = Prothrombin (Homo sapiens, UniProt P00734); test: Thrombin 1536 HTS Dose Response Confirmation. [Related pubchem assays: 1046 (Thrombin 1536 HTS; hits were confirmed in this assay)]; type: functional
[2] = target: T1, E3 ubiquitin-protein ligase XIAP (Homo sapiens, UniProt P98170); test: SAR analysis of Antagonists of IAP-family anti-apoptotic proteins. [Related pubchem assays (depositor defined):AID1018, AID1449, AID1513, AID1514, AID1638]
[3] = target: T1, E3 ubiquitin-protein ligase XIAP; test: SAR analysis of Antagonists of XIAP-Bir3 domain of IAP-family anti-apoptotic proteins. [Related pubchem assays (depositor defined):AID1018, AID1449, AID1513, AID1514, AID1638]
[4] = target: Kappa-type opioid receptor (Homo sapiens, UniProt P41145); test: SAR analysis of Antagonists of the Kappa Opioid Receptor (KOR) using an Image-Based Assay - Set 4. [Related pubchem assays (depositor defined):AID1777, AID1785]; type: functional

## Nc1nc2ccccc2n1Cc1ccc(Cl)cc1
[1]
  IC50: active: 11700 nM

## CCC(=O)n1nc(-c2cccnc2)nc1NCc1cccs1
Prothrombin
  IC50: active: 2.36 nM

## CN[C@@H](C)C(=O)N[C@H](C(=O)N1CCC[C@H]1C(=O)NC1CCCc2ccccc21)C(C)C (stereo not given in full)
[2]
  IC50: active: 4200 nM
[3]
  IC50: active: 460 nM

## COc1ccc(N2CCN(CCCNC(=O)Cn3c(=O)c4cccn4c4c(C)ccnc43)CC2)cc1
[4]
  IC50: active: 3.19 nM

The source made the active and inactive calls.
